From PubChem BioAssay AID834 (PCMD, 2007)
The entries are a selection whose mix differs from that of the whole data set. The source made the active and inactive calls.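 The calls were made as follows: active = inhibition above 20%; inactive = inhibition below 20%.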

test: clotrimazole potentiators killing Candida biofilms, primary screen, with clotrimazole, Alamar Blue (AID 834);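 also: preformed 24 hr biofilms exposed to compound for 48 hr; 0% = biofilm without compound and 100% = blank killed by clotrimazole plus chlorhexidine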; conditions: C. albicans biofilm + clotrimazole, at 6 µM, active compounds read high

Compound	inhibition
O=P1(Nc2nc3ccc(Cl)cc3s2)COc2ccccc2O1 (configuration not stated)	inactive: -3.88%
COC(=O)c1cc2c(s1)N=C(c1ccccc1)N(C)P2(=O)N1CCOCC1 (configuration not stated)	inactive: 5.51%
O=C(OC1CN2CCC1CC2)c1cccc(Cl)c1 (configuration not stated)	inactive: 1.33%
c1nnnn1CCn1cnnn1	inactive: 4.26%
O=P(Nc1nccs1)(c1ccccc1)c1ccccc1	inactive: 7.31%
CCc1nc2c(n1)c1c(non1O)c1c2no[n+]1[O-]	inactive: 5.55%
O=[N+]([O-])c1cccc2n[nH]nc12	inactive: 6.69%
CC1CCN(C(=O)Oc2c(Cl)cc(Cl)c3cccnc23)CC1	inactive: 6.63%
CCOP(=O)(Nc1ccccc1)OCC	inactive: 3.77%
CN1CCCC(OC(=O)C(c2ccccc2)c2ccccc2)C1 (configuration not stated)	inactive: 7.6%
Oc1ccccc1CNc1ccccn1	inactive: 5.16%
Cc1c2non([O-])c-2c(C)[n+](=O)[n+]1[O-]	inactive: 9.34%
O=C(OC1CN2CCC1CC2)C12CC3CC(CC(C3)C1)C2 (configuration not stated)	inactive: 2.24%
ClCCSc1nnc(-c2cccnc2)o1	inactive: -1.01%
O=C(COc1ccccc1)OC1CN2CCC1CC2 (configuration not stated)	inactive: -3.47%
COP1(=S)c2c(C)nn(CCC#N)c2N=C(c2ccc(F)cc2)N1C (configuration not stated)	inactive: 4.13%
CCC(C)N(CC(C)C)C(=S)SC(NC(C)=O)C(Cl)(Cl)Cl (configuration not stated)	inactive: -5.28%
Clc1n[nH]nc1-c1nn[nH][15n]1	inactive: 5.69%
O=P1(Nc2ccccn2)COc2ccccc2OC1	inactive: 6.96%
CC1(CBr)Cn2c(nc3ccccc3c2=O)S1 (configuration not stated)	inactive: 8.26%
Cc1nn(-c2ccccc2)c2c1P(=O)(N1CCOCC1)N(C)C(c1ccccc1)=N2 (configuration not stated)	inactive: 9.45%
O=P1(Nc2ccc(Br)cn2)COc2ccccc2OC1	inactive: -5.21%
Cc1ccc(OCC(=O)OC2CN3CCC2CC3)cc1 (configuration not stated)	inactive: 9.4%
O=P1(Nc2ncccn2)COc2ccccc2OC1	inactive: -0.27%
CCOP1(=S)c2c(C)nn(CCC#N)c2N=C(c2ccccc2F)N1C (configuration not stated)	inactive: 0%
CCOP1(=S)c2c(C)nn(CCC#N)c2N=C(c2ccc(F)cc2)N1C (configuration not stated)	inactive: 9.07%
Cc1cccc(OCC(=O)OC2CN3CCC2CC3)c1 (configuration not stated)	inactive: 9.62%
